Values quoted from earlier work in patent US5486463A, “TNF-muteins” (Hoffmann-La Roche Inc., priority 1992, dated 1996).

System: C57B16 mice

Substance: hTNF-α: human Tumor Necrosis Factor-alpha, 157 amino acids, SEQ ID: 2
- LD50: about 500 μg/mouse
